Measured values reported in US20230009626A1 (ICHNOS SCIENCES S.A., priority 2018, published 2023).

By UniProt entry, the sequences of proteins in these tests, tags left out.
UniProt Q92918, whole entry: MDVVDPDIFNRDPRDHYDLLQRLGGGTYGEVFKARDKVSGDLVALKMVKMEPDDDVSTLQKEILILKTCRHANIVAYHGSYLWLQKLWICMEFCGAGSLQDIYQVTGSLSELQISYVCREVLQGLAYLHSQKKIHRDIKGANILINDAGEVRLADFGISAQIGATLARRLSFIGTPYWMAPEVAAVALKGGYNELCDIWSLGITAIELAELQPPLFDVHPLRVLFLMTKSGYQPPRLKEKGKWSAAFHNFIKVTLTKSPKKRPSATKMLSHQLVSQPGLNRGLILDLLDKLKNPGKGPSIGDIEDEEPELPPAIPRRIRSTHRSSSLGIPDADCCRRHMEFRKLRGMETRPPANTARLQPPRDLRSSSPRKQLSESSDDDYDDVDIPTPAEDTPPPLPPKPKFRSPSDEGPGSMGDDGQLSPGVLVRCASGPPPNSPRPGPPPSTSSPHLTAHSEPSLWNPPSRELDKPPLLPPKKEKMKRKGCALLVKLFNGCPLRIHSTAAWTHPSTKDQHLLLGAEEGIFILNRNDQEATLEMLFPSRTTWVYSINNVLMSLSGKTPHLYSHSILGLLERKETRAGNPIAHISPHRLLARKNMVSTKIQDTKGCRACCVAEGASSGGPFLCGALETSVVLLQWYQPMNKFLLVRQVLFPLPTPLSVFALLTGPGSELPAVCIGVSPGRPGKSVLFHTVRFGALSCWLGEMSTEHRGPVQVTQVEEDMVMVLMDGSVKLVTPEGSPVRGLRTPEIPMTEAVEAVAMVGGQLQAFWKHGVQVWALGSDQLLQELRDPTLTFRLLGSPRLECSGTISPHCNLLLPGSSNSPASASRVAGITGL

Biological target: HPK1 (MAP4K1) (Homo sapiens, UniProt Q92918)
Assay: FRET Assay for HPK1 (MAP4K1): one step binding assay, displacement of labeled tracer
From the text: FRET Assay for HPK1 (MAP4K1):
This is a one step binding assay based on the binding and displacement of the labeled tracer, where compound addition is followed by addition of the anti-GST tagged europium (Eu) as the donor and Alexa Fluor-labeled tracer as the acceptor. Simultaneous binding of both the tracer and GST-antibody to the kinase domain of HPK1 results in a high degree of FRET (fluorescence resonance energy transfer) from the anti-GST tagged europium (Eu) fluorophore to the Alexa Fluor® 647 fluorophore on the kinase tracer and this signal is reduced in presence of the inhibitor that can be measured.
Test compounds or reference compounds such as Sunitinib (Sigma) were dissolved in dimethylsulfoxide (DMSO) to prepare 10.0 mM stock solutions and diluted to the desired concentration. The final concentration of DMSO in the reaction was 3% (v/v). […] After shaking for 5 min the reaction was further incubated for 1 hour at room temperature and this was kept at 4° C. and read on ARTEMIS reader as per the kit instructions (Thermo). The inhibition of test compound was calculated based on the FRET ratio of 665/620. The activity was calculated as percent of control reaction. IC50 values were calculated from dose response curve by nonlinear regression analysis using GraphPad Prism software. […]

SMILES: C/C(Nc1ccn(C(C)(C)C#N)n1)=C1/C(=O)Nc2cnc(-c3cnccc3C)cc21
- % Inhibition at 1 μM (1 μM compound, FRET ratio 665/620, percent of control): 78.55%
- IC50 (read-out: IC50 value, dose response curve, nonlinear regression): < 50 nM
